In US10160726B2, “Quinolone derivatives as antibacterials” (priority 2014, dated 2018):

Test system: S. aureus ATCC 29213 (NB01001)
Test: MIC, broth microdilution (CLSI)
Format: cell-based
Conditions: Staphylococcus aureus, ATCC29213, 20 h, read-out: Antibacterial activity (MIC) NB01001

Cc1c(N2CC[C@@H]([C@H](C)N)C2)c(F)cc2cc(C(=O)O)c(=O)n(C3CC3)c12.Cl [Example 1.1, 7-((R)-3-((S)-1-aminoethyl)pyrrolidin-1-yl)-1-cyclopropyl-6-fluoro-8-methyl-2-oxo-1,2-dihydroquinoline-3-carboxylic acid hydrochloride salt]
MIC: 0.125 µg/mL
